By UniProt entry, the sequences of proteins in these tests, tags left out.
UniProt O14842, whole entry: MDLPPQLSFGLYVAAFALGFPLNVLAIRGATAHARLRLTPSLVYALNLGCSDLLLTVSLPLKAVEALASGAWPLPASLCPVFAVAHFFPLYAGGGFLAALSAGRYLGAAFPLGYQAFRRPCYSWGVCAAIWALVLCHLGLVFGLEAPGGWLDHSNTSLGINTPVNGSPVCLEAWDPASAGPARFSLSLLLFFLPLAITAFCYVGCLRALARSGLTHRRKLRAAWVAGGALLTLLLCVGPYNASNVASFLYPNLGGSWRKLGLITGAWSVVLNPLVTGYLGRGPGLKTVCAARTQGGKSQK

According to EP4682145A1, “BENZOHETEROCYCLIC COMPOUND, AND PREPARATION METHOD THEREFOR AND USE THEREOF” (Cascade Pharmaceuticals, Inc., priority 2023, dated 2024):

Biological target: human FFAR1 (GPR40) (Homo sapiens, UniProt O14842)
Assay: NFAT-RE-based reporter gene activity assay (Dual-Glo luciferase) for GPR40 agonistic activity in co-transfected HEK293T cells
Assay type: cell-based
Settings: 4-hour treatment, tested form: free acid

Efficacy (%) (class symbols): †† (150 ≥ Efficacy (%) > 100) | EC50: 100 to 500 nM
SMILES: COc1cccc(N2CCC(c3oc4cc(C(CC(=O)O)C5CC5)ccc4c3C(=O)NC3CC4CCC3C4)CC2)c1 (centres unmarked)
